Results published in article PMC6639327, “PLPP/CIN-mediated NEDD4-2 S448 dephosphorylation regulates neuronal excitability via GluA1 ubiquitination” (Cell Death & Disease, 2019).

Molecular target: T1, Neuronal precursor cell expressed developmentally downregulated 4-2 (NEDD4-2) (mouse (endogenous in hippocampus), UniProt Q8CFI0 1-1004)
T1 construct: NEDD4-2 E3 ubiquitin ligase, endogenous in mouse hippocampus; S222 and S328 in murine NEDD4-2; source: endogenous, mouse hippocampal tissue lysate (RIPA buffer)
T1 sequence (looked up): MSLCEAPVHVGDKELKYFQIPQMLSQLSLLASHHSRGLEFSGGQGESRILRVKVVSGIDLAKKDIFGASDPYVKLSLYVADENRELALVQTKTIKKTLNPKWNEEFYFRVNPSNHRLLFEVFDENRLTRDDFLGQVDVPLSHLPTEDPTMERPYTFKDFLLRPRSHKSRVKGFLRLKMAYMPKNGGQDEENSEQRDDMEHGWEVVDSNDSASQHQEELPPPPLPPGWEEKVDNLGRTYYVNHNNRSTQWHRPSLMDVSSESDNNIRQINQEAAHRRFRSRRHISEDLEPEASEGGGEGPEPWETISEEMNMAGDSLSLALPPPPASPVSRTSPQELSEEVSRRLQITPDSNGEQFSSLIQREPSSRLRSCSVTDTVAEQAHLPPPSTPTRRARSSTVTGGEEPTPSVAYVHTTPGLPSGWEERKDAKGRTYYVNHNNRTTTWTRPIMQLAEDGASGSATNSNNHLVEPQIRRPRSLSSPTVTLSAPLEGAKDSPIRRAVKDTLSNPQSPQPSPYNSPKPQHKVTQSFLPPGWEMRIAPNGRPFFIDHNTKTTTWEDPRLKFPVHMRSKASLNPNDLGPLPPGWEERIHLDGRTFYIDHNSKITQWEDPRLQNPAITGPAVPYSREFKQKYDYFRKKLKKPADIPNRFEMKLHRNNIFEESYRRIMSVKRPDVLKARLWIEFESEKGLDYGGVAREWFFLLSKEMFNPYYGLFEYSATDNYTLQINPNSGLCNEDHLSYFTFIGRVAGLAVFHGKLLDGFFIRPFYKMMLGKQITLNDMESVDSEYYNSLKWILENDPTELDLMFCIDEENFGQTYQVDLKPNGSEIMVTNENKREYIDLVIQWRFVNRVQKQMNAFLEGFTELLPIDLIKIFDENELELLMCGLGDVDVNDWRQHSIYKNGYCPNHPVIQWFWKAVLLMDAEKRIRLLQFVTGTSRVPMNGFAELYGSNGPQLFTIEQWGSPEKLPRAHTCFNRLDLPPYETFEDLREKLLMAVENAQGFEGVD
Assay: co-IP; mouse hippocampal tissue lysed in RIPA buffer with protease and phosphatase inhibitors; equal protein incubated with NEDD4-2, ubiquitin or GluA1 antibody and protein G sepharose at 4 °C overnight; western blot; WT, PLPP/CIN^-/- and PLPP/CIN^Tg mice, saline or KA (25 mg/kg, 2 h), control or NEDD4-2 siRNA
Conditions: partners not purified

fold of WT mouse level (in PLPP/CIN^Tg mice): ~0.5 fold
B1: GluA1 subunit of the AMPA receptor (receptor, mouse (endogenous in hippocampus), UniProt P23818 19-907, looked up)
chain: ANFPNNIQIGGLFPNQQSQEHAAFRFALSQLTEPPKLLPQIDIVNISDSFEMTYRFCSQFSKGVYAIFGFYERRTVNMLTSFCGALHVCFITPSFPVDTSNQFVLQLRPELQEALISIIDHYKWQTFVYIYDADRGLSVLQRVLDTAAEKNWQVTAVNILTTTEEGYRMLFQDLEKKKERLVVVDCESERLNAILGQIVKLEKNGIGYHYILANLGFMDIDLNKFKESGANVTGFQLVNYTDTIPARIMQQWRTSDARDHTRVDWKRPKYTSALTYDGVKVMAEAFQSLRRQRIDISRRGNAGDCLANPAVPWGQGIDIQRALQQVRFEGLTGNVQFNEKGRRTNYTLHVIEMKHDGIRKIGYWNEDDKFVPAATDAQAGGDNSSVQNRTYIVTTILEDPYVMLKKNANQFEGNDRYEGYCVELAAEIAKHVGYSYRLEIVSDGKYGARDPDTKAWNGMVGELVYGRADVAVAPLTITLVREEVIDFSKPFMSLGISIMIKKPQKSKPGVFSFLDPLAYEIWMCIVFAYIGVSVVLFLVSRFSPYEWHSEEFEEGRDQTTSDQSNEFGIFNSLWFSLGAFMQQGCDISPRSLSGRIVGGVWWFFTLIIISSYTANLAAFLTVERMVSPIESAEDLAKQTEIAYGTLEAGSTKEFFRRSKIAVFEKMWTYMKSAEPSVFVRTTEEGMIRVRKSKGKYAYLLESTMNEYIEQRKPCDTMKVGGNLDSKGYGIATPKGSALRGPVNLAVLKLSEQGVLDKLKSKWWYDKGECGSKDSGSKDKTSALSLSNVAGVFYILIGGLGLAMLVALIEFCYKSRSESKRMKGFCLIPQQSINEAIRTSTLPRNSGAGASGGSGSGENGRVVSQDFPKSMQSIPCMSHSSGMPLGATGL
notes: AMPA receptor subunit GluA1, endogenous in mouse hippocampus; source: endogenous, mouse hippocampal tissue lysate (RIPA buffer)
